# The list shows a part of the results, in another mix than the full data. Active and inactive are the calls of the source.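 The calls were made as follows: active = inhibition above about 40% at 20 µM (limit read from the data); inactive = the rest.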
# Protein sequences, listed by entry. Tags and fused reporters are not part of them. Lines headed by an entry give the natural chain unless they say otherwise; changes in a name come on top.
# UniProt P35414: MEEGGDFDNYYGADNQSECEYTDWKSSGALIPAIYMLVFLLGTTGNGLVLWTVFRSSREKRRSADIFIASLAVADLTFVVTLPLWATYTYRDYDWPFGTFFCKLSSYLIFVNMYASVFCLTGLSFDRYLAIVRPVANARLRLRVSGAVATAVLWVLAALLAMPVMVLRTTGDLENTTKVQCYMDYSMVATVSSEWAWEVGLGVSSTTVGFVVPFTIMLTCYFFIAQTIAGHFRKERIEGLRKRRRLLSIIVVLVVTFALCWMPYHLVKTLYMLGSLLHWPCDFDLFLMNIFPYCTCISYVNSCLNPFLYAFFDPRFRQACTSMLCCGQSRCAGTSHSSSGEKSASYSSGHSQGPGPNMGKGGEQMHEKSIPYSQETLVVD
# Biological target: Apelin receptor (Homo sapiens) (UniProt P35414)
# Assay: blockade of apelin-induced APJ beta-arrestin recruitment – CHO-K1 cells, beta-arrestin complementation, luminescence, primary screen (AID 2521);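 also: cells challenged with 10 nM apelin-13 agonist together with compound; plate controls were apelin-13 plus DMSO wells for no effect and DMSO wells lacking apelin-13 for full effect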
# Conditions: at 20 µM, stronger effect = higher value
row,Structure (SMILES),inhibition
1,Cc1ccnc(SCc2cc(=O)c(OC(=O)c3ccc(Cl)c([N+](=O)[O-])c3)co2)n1,active: 58.4%
